Assay results reported in patent US20210293786A1, “Method Relating to Evaluation of Tumor Tissue of Experimental Animal” (KONICA MINOLTA, INC., priority 2016, published 2021).

Legend:
[1] = tested on: breast cancer tissues collected from a patient with breast cancer (HER2 score +3), transplanted in PDX mice; experiment: Efficacy of Trastuzumab in second-generation (P2) PDX mice, groups stratified by CD140a PID score of the P1 mice (Example 1-1); type: in vivo, mouse; details: 15 mg/kg i.v.; for Drug efficacy: Day 21; for Tumor volume: group average on Day 21 relative to that when administered (100)
[2] = tested on: breast cancer tissues collected from a patient with breast cancer (HER2 score +3), transplanted in PDX mice; experiment: Efficacy of Trastuzumab in second-generation (P2) PDX mice, groups stratified by CD140a DAB score and further by HER2 score of the P1 mice (Examples 1-2, 2-1, 2-2); type: in vivo, mouse; details: for Drug efficacy: Day 21; for Tumor volume: Day 21 relative to that when administered (100)
[3] = group P2-3 (from P1-3, CD140a PID particles 100000-150000)
[4] = group P2-4 (from P1-4, CD140a PID particles >150000)
[5] = group P2-5-4 (P1-5, CD140a 0-10%, HER2 PID particles per cell <500)
[6] = group P2-6-2 (P1-6, CD140a 10-20%, HER2 DAB ≤2+)
[7] = group P2-6-4 (P1-6, CD140a 10-20%, HER2 PID particles per cell <500)
[8] = group P2-7 (from P1-7, CD140a DAB score 20-30%)
[9] = group P2-7-1 (P1-7, CD140a 20-30%, HER2 DAB 3+)
[10] = group P2-7-2 (P1-7, CD140a 20-30%, HER2 DAB ≤2+)
[11] = group P2-7-4 (P1-7, CD140a 20-30%, HER2 PID particles per cell <500)
[12] = group P2-8 (from P1-8, CD140a DAB score >30%)
[13] = group P2-8-2 (P1-8, CD140a >30%, HER2 DAB ≤2+)
[14] = group P2-8-3 (P1-8, CD140a >30%, HER2 PID particles per cell ≥500)
[15] = group P2-8-4 (P1-8, CD140a >30%, HER2 PID particles per cell <500)

Trastuzumab
Drug efficacy ([1]; group P2-1 (from P1-1, CD140a PID particles 0-50000)): AA (AA, a tumor volume of <200)
Drug efficacy ([1]; group P2-2 (from P1-2, CD140a PID particles 50000-100000)): AA (AA, a tumor volume of <200)
Drug efficacy [1, 3]: BB (BB, a tumor volume of 200 to 400)
Tumor volume [1, 3]: 252
Drug efficacy [1, 4]: CC (CC, a tumor volume of 400 to 600)
Tumor volume [1, 4]: 408
Drug efficacy ([2]; group P2-5 (from P1-5, CD140a DAB score 0-10%)): AA (AA, a tumor volume of <200)
Drug efficacy ([2]; group P2-5-1 (P1-5, CD140a 0-10%, HER2 DAB 3+)): AA (AA, a tumor volume of <200)
Drug efficacy ([2]; group P2-5-3 (P1-5, CD140a 0-10%, HER2 PID particles per cell ≥500)): AA (AA, a tumor volume of <200)
Drug efficacy [2, 5]: AA (AA, a tumor volume of <200)
Tumor volume [2, 5]: 192
Drug efficacy ([2]; group P2-6 (from P1-6, CD140a DAB score 10-20%)): AA (AA, a tumor volume of <200)
Drug efficacy ([2]; group P2-6-1 (P1-6, CD140a 10-20%, HER2 DAB 3+)): AA (AA, a tumor volume of <200)
Drug efficacy [2, 6]: BB (BB, a tumor volume of 200 to 400)
Tumor volume [2, 6]: 340
Drug efficacy ([2]; group P2-6-3 (P1-6, CD140a 10-20%, HER2 PID particles per cell ≥500)): AA (AA, a tumor volume of <200)
Drug efficacy [2, 7]: BB (BB, a tumor volume of 200 to 400)
Tumor volume [2, 7]: 280
Drug efficacy [2, 8]: BB (BB, a tumor volume of 200 to 400)
Tumor volume [2, 8]: 252
Drug efficacy [2, 9]: BB (BB, a tumor volume of 200 to 400)
Tumor volume [2, 9]: 212
Drug efficacy [2, 10]: BB (BB, a tumor volume of 200 to 400)
Tumor volume [2, 10]: 392
Drug efficacy ([2]; group P2-7-3 (P1-7, CD140a 20-30%, HER2 PID particles per cell ≥500)): AA (AA, a tumor volume of <200)
Drug efficacy [2, 11]: CC (CC, a tumor volume of 400 to 600)
Tumor volume [2, 11]: 516
Drug efficacy [2, 12]: CC (CC, a tumor volume of 400 to 600)
Tumor volume [2, 12]: 408
Drug efficacy [2, 13]: DD (DD, a tumor volume of >600)
Tumor volume [2, 13]: 658
Drug efficacy [2, 14]: BB (BB, a tumor volume of 200 to 400)
Tumor volume [2, 14]: 207
Drug efficacy [2, 15]: DD (DD, a tumor volume of >600)
Tumor volume [2, 15]: 609
